According to ChEMBL document CHEMBL5614410, “Design, Synthesis, and Evaluation of p53Y220C Acetylation Targeting Chimeras (AceTACs)” (J Med Chem, 2024):

Experiments:
Format in all cases: cell-based
[1] = system: CREB-binding protein/Histone acetyltransferase p300/Cellular tumor antigen p53 (Homo sapiens), P04637+Q09472+Q92793 [Y220C]; test: AceTAC activity at FLAG-tagged p53Y220C mutant (unknown origin) expressed in human NCI-H1299 cells expressing p300/CBP assessed as fold increase in p53 acetylation at lysine 382 residue at 10 uM incubated for 4 hrs by western blot analysis relative to control
[2] = system: CREB-binding protein/Histone acetyltransferase p300/Cellular tumor antigen p53 (Homo sapiens), P04637+Q09472+Q92793 [Y220C]; test: AceTAC activity at FLAG-tagged p53Y220C mutant (unknown origin) expressed in human NCI-H1299 cells expressing p300/CBP assessed as fold increase in p53 acetylation at lysine 382 residue at 1 uM incubated for 24 hrs by western blot analysis relative to control
[3] = system: CREB-binding protein/Histone acetyltransferase p300/Cellular tumor antigen p53 (Homo sapiens), P04637+Q09472+Q92793 [Y220C]; test: AceTAC activity at FLAG-tagged p53Y220C mutant (unknown origin) expressed in human NCI-H1299 cells expressing p300/CBP assessed as fold increase in DUSP5 mRNA expression at 3 uM incubated for 24 hrs by RT-PCR analysis relative to control
[4] = system: CREB-binding protein/Histone acetyltransferase p300/Cellular tumor antigen p53 (Homo sapiens), P04637+Q09472+Q92793 [Y220C]; test: AceTAC activity at FLAG-tagged p53Y220C mutant (unknown origin) expressed in human NCI-H1299 cells expressing p300/CBP assessed as fold increase in TNFRSF10A mRNA expression at 3 uM incubated for 24 hrs by RT-PCR analysis relative to control
[5] = system: CREB-binding protein/Histone acetyltransferase p300/Cellular tumor antigen p53 (Homo sapiens), P04637+Q09472+Q92793 [Y220C]; test: AceTAC activity at FLAG-tagged p53Y220C mutant (unknown origin) expressed in human NCI-H1299 cells expressing p300/CBP assessed as fold decrease in E2F1 mRNA expression at 3 uM incubated for 24 hrs by RT-PCR analysis relative to control

## CCn1c2ccc(CNCCOCCOCCOCCC(=O)NCCOc3ccc(CCc4nc5cc(-c6c(C)noc6C)ccc5n4CCN4CCOCC4)cc3F)cc2c2ccc(-c3cc(C)cs3)cc21
[1]
  fold change (FC): 2
[2]
  fold change (FC): 3
[3]
  fold change (FC): 3
[4]
  fold change (FC): > 2
[5]
  fold change (FC): 2
